# Properties, as collected for the OPERA models

From the experimental data distributed with OPERA 2.9.

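OPERA's authors assembled the values from existing databases and did not measure them anew. The files give a single number for a compound and property, which may rest on several reports. Conditions of the individual experiments are not part of the data. The measured form (salt, isomer or mixture) is not always the one drawn. Unmarked limits or estimates from the upstream databases cannot be ruled out.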

The melting point is given in degrees Celsius. Boiling points are in °C, nominally at 760 mmHg. logP is the log10 of the octanol-water partition coefficient; higher is more lipophilic. Solubility in water is on a log10 molar scale (set defined at 25 °C). Vapor pressures (log10 mmHg) refer to near room temperature, 15 to 30 °C; higher is more volatile. The unbound fraction in human plasma runs from 0 (all bound) to 1 (all free). Intrinsic clearance (human, µL/min per 10^6 hepatocytes): higher is faster turnover, and 0 stands for none detected. "n/a" marks a cell with nothing listed here.

structure (SMILES),mp (°C),BP (°C),logP,log solubility (log10 mol/L),log VP (log10 mmHg),fraction unbound,hepatic Clint (µL/min/10^6 cells)
COc1ccc2c(c1)CCCC2=CCC1(C)C(=O)CCC1=O,79,n/a,3.8,-4.828,n/a,n/a,n/a
O=C1NC(=O)C(c2ccc(O)cc2)N1 (stereo not given),271.9,n/a,-0.03,-2.173,n/a,n/a,n/a
CCCCCCCCCCCC1=NCCN1CCO,39.5,354,1.85,-3.899,-5.558,n/a,n/a
CCN(CCC(C)C)c1ccc2c(c1)Oc1cc(C)c(Nc3ccccc3)cc1C21OC(=O)c2ccccc21 (stereo not given),165,n/a,4.2,n/a,-7.161,n/a,n/a
CC(c1ccccc1)c1ccc(O)cc1O (stereo not given),79,366.5,2.11,-1.734,-7.097,n/a,n/a
CCO[Si](CN1CCOCC1)(OCC)OCC,-100.2,241.2,n/a,n/a,n/a,n/a,n/a
CC(=O)O[C@@]12CCC[C@@](C)(CC[C@@H]3[C@@H]1CC3(C)C)C2,6.16,n/a,n/a,-4.221,n/a,n/a,n/a
CCCCCCCCCCC1CO1 (stereo not given),-8,n/a,5.9,n/a,n/a,n/a,n/a
O=C(c1ccc(O)cc1)c1ccc(O)cc1O,n/a,n/a,n/a,n/a,n/a,0.0196,21.1
CN(C)CCCNCCC#N,-20.07,n/a,0.077,0.776,n/a,n/a,n/a
CN(CCO)c1nc(Nc2ccccc2)nc(Nc2ccc(/C=C/c3ccc(Nc4nc(Nc5ccccc5)nc(N(C)CCO)n4)cc3S(=O)(=O)[O-])c(S(=O)(=O)[O-])c2)n1.[Na+].[Na+],n/a,n/a,1.2,-3.069,n/a,n/a,n/a
Cc1cccc(C)c1OCC(=O)O,n/a,n/a,0.91,n/a,-6.118,n/a,n/a
C[N+]1(CC(=O)N/N=C/c2ccccc2O)CCOCC1.[Cl-],187,n/a,-2.4,n/a,-7.727,n/a,n/a
CS(=O)(=O)O.CS(=O)(=O)O.Nc1c(N)n2n(c1=O)CCC2,183.7,n/a,-2.8,n/a,n/a,n/a,n/a
CN(C)c1cccc(O)c1,n/a,n/a,n/a,n/a,n/a,0.242,0
CCCCCCCCCCCC(=O)OC(C)CS(=O)(=O)[O-].[Na+] (stereo not given),154.7,n/a,n/a,-2.317,n/a,n/a,n/a
CCOC(=O)C(C)C1CCCCC1 (stereo not given),-36.5,n/a,4.03,-3.327,-0.784,n/a,n/a
C=CCOCC(O)CS(=O)(=O)[O-].[Na+] (stereo not given),n/a,n/a,-1.51,n/a,-5.739,n/a,n/a
CCCCC(C#N)c1ccccc1 (stereo not given),n/a,n/a,3.14,-3.662,-1.215,n/a,n/a
NC(=O)NN=Cc1ccc([N+](=O)[O-])o1,n/a,n/a,n/a,-2.971,n/a,0.856,0
COC(=O)CCN(CCC(=O)OC)c1ccc(N=Nc2c(Cl)cc([N+](=O)[O-])cc2Br)cc1,112,n/a,5.3,-7.1,-6.393,n/a,n/a
O=C1COCCN1c1ccccc1,n/a,331.1,n/a,n/a,-4.961,n/a,n/a
COC(=O)CCCCCCCCC(=O)OC,n/a,n/a,3.38,n/a,-3.222,n/a,n/a
CC(O)C(C)Cc1ccccc1 (stereo not given),n/a,n/a,3.1,-1.697,-2.084,n/a,n/a
CCC(=O)OC(OP(=O)(CCCCc1ccccc1)CC(=O)N1C[C@H](C2CCCCC2)C[C@H]1C(=O)O)C(C)C (some centres not stated),n/a,n/a,6.3,-5.747,n/a,n/a,n/a
C=C[Si](C)(N(CC)C(C)=O)N(CC)C(C)=O,n/a,198,n/a,n/a,0.17,n/a,n/a
O=C=Nc1ccc(C(c2ccc(N=C=O)cc2)c2ccc(N=C=O)cc2)cc1 (stereo not given),74.4,n/a,n/a,n/a,-6.546,n/a,n/a
Clc1cc(Cl)ncn1,n/a,n/a,1.45,n/a,-0.541,n/a,n/a
CC[C@H](c1ccc(O)cc1)[C@@H](CC)c1ccc(O)cc1,n/a,n/a,n/a,n/a,n/a,0.00772,14
Cc1ccc(C)c(OCCCC(C)(C)C(=O)O)c1,n/a,n/a,3.4,n/a,n/a,0.008307,58.72
C=CC(=O)OC(C)CCCCCC (stereo not given),-78,n/a,4.68,-4.14,n/a,n/a,n/a
CC(C)c1ccc2oc3nc(N)c(C(=O)O)cc3c(=O)c2c1,n/a,n/a,4.1,-3.31,n/a,n/a,n/a
CCCCCCCCCCCCCCCCCC(=O)OC[C@@H](OC(=O)CCCCCCCCCCCCCCCCC)[C@H]1OC[C@H](O)[C@H]1OC(=O)CCCCCCCCCCCCCCCCC,54,n/a,n/a,-7.285,n/a,n/a,n/a
Oc1ccc(OCc2ccccc2)cc1,n/a,n/a,3.2,-3.708,n/a,n/a,n/a

Extract of 2 entries:

structure (SMILES),mp (°C),BP (°C),logP,log solubility (log10 mol/L),log VP (log10 mmHg),fraction unbound,hepatic Clint (µL/min/10^6 cells)
CCC(=O)OC(OP(=O)(CCCCc1ccccc1)CC(=O)N1C[C@H](C2CCCCC2)C[C@H]1C(=O)O)C(C)C (some centres not stated),n/a,n/a,6.3,-5.747,n/a,n/a,n/a
CCO[Si](CN1CCOCC1)(OCC)OCC,-100.2,241.2,n/a,n/a,n/a,n/a,n/a